Values of other authors as cited in US6703042B1, “Salts of L-carnitine and lower alkanoyl L-carnitine” (Sigma-Tau Industries Farmaceutiche Riunite S.p.A., priority 1999, dated 2004).

Details: background statement; cited from earlier work

| Substance | Hygroscopicity (known salts, prior art) |
| --- | --- |
| acetyl L-carnitine acid L-aspartate | non-hygroscopic |
| acetyl L(−)-carnitine tartrate | strongly hygroscopic |
